Measured values taken from patent US11045453B1 (priority 2020, dated 2021).

Molecular target: T1, Human Matriptase-1 (Homo sapiens, UniProt Q9Y5Y6)
T1 sequence (Q9Y5Y6 1-855): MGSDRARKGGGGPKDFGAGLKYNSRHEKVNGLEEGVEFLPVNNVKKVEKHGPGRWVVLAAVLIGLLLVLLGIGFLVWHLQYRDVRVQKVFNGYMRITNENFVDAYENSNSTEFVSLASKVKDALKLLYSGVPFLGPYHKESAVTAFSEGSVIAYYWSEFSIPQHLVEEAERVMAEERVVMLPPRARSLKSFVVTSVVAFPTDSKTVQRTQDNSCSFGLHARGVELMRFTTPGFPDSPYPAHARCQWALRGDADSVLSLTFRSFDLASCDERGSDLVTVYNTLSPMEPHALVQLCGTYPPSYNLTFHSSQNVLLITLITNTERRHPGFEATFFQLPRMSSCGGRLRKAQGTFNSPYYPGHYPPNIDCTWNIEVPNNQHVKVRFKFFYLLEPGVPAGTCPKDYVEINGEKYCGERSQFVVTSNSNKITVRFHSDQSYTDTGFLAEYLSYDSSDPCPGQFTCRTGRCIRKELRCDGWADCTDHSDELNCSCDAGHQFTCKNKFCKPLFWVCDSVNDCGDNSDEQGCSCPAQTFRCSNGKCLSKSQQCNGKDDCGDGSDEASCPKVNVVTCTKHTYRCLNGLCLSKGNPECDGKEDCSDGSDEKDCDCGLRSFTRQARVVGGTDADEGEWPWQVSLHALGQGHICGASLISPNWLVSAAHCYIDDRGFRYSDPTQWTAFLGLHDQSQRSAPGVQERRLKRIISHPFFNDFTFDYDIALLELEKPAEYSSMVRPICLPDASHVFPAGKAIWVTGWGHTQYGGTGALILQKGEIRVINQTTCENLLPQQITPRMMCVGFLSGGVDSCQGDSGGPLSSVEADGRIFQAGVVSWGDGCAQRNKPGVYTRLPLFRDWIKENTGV
Experiment: biochemical

`CCOC(=O)N1CCN(C(=O)[C@H](Cc2cccc(C(=N)N)c2)NS(=O)(=O)c2c(C(C)C)cc(C(C)C)cc2C(C)C)CC1` [WX-UK1, N-α-(2,4,6-triisopropylphenylsulfonyl)-3-amidino-phenylalanine-4-ethoxycarbonylpiperazide] was tested, and the Ki was 200 ± 10 nM.
